Test results reported in US7632933B2, “Corticotropin releasing factor 2 receptor agonists” (priority 2002, dated 2009).

What was measured:
[1] = biological target: T1, CRF2R (Homo sapiens, UniProt Q13324); test: CRF2R agonist activity (EC50 and Emax), called comparative CRF binding; assay type: cell-based; settings: CRF2R; for EC50: CRF2R EC50 (nM)
T1 sequence (Q13324 1-411): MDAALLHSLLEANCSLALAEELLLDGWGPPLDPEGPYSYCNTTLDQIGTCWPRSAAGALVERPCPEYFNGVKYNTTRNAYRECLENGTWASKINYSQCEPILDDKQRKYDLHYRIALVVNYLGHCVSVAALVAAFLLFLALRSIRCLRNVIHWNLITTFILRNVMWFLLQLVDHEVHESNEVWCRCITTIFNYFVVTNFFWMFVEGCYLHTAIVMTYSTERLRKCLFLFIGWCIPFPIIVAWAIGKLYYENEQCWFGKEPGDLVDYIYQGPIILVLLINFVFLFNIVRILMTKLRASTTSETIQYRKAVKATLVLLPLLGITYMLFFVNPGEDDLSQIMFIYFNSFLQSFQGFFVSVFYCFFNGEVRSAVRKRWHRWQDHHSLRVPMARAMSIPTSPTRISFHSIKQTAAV
Summary of the method: (§1)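 Cells expressing CRF1R or CRF2R exposed to peptide or vehicle control; receptor activation read as cAMP induction in cell lysates or via a cAMP-responsive-element reporter gene (e.g. luciferase, CAT, GFP). Signal from any non-target CRFR subtype subtracted.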

[2] = biological target: T2, CRF1R (Homo sapiens, UniProt P34998); test: CRF1R agonist activity (EC50 and Emax), called comparative CRF binding; assay type: cell-based; settings: CRF1R; for EC50: CRF1R EC50 (nM)
T2 sequence (P34998 24-415): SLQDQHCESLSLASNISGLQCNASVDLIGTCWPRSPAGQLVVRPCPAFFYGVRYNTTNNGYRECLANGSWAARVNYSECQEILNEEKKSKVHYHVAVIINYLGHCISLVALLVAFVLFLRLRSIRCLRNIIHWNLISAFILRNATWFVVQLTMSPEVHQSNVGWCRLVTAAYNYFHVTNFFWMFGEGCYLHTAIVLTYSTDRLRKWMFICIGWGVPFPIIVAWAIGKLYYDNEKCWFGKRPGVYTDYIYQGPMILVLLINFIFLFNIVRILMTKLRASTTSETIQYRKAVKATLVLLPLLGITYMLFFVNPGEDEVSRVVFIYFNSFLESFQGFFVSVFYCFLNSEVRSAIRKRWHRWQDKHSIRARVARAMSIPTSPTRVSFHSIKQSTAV
Summary of the method: as §1

Compound	EC50 [1] [nM]	EC50 [2] [nM]	CRF2R (Emax %) ([1]; Emax)	CRF1R (Emax %) ([2]; Emax)
CC[C@H](C)[C@H](NC(=O)[C@H](CCCNC(=N)N)NC(=O)[C@H](C)NC(=O)[C@H](CC(C)C)NC(=O)[C@H](CC(C)C)NC(=O)[C@H](CCCNC(=N)N)NC(=O)[C@H](C)NC(=O)[C@H](CC(N)=O)NC(=O)[C@H](CC(N)=O)NC(=O)[C@H](C)NC(=O)[C@H](C)NC(=O)[C@H](CCC(N)=O)NC(=O)[C@H](CCC(N)=O)NC(=O)[C@H](CCCCN)NC(=O)[C@H](CCC(=O)O)NC(=O)[C@H](CCCCN)NC(=O)[C@H](CCC(=O)O)NC(=O)[C@H](CCC(N)=O)NC(=O)[C@H](CCCCN)NC(=O)[C@H](CCC(=O)O)NC(=O)[C@@H](NC(=O)[C@H](CCC(=O)O)NC(=O)[C@@H](NC(=O)[C@H](CCSC)NC(=O)[C@H](CCCCN)NC(=O)[C@H](CCCNC(=N)N)NC(=O)[C@H](CC(C)C)NC(=O)[C@H](CC(C)C)NC(=O)[C@@H](NC(=O)[C@@H](NC(=O)[C@@H]1CCCN1C(=O)[C@H](CC(C)C)NC(=O)[C@H](CC(=O)O)NC(=O)[C@@H](NC(=O)[C@H](CO)NC(=O)[C@@H](NC(=O)[C@@H]1CCCN1C(=O)[C@@H]1CCCN1C(=O)CNC(=O)[C@@H]1CCC(=O)N1)[C@@H](C)CC)[C@@H](C)CC)[C@@H](C)CC)[C@@H](C)CC)[C@@H](C)CC)[C@@H](C)CC)C(N)=O [compound 290]	≥ 100	≥ 1000		
CC[C@H](C)[C@H](NC(=O)[C@@H](NC(=O)[C@H](CC(=O)O)NC(=O)[C@H](CC(C)C)NC(=O)[C@H](CC(C)C)NC(=O)[C@H](CC(C)C)NC(=O)[C@H](CCCNC(=N)N)NC(=O)[C@H](CC(N)=O)NC(=O)[C@H](CC(N)=O)NC(=O)[C@H](C)NC(=O)[C@H](C)NC(=O)[C@H](CCC(N)=O)NC(=O)[C@H](CCC(N)=O)NC(=O)[C@H](CCCCN)NC(=O)[C@H](CCC(=O)O)NC(=O)[C@H](CCCCN)NC(=O)[C@H](CCC(=O)O)NC(=O)[C@H](CCC(N)=O)NC(=O)[C@H](CCCCN)NC(=O)[C@H](CCC(=O)O)NC(=O)[C@@H](NC(=O)[C@H](CCC(=O)O)NC(=O)[C@@H](NC(=O)[C@@H](NC(=O)[C@H](CCCCN)NC(=O)[C@H](CCCNC(=N)N)NC(=O)[C@H](CC(C)C)NC(=O)[C@H](CC(C)C)NC(=O)[C@H](Cc1c[nH]c2ccccc12)NC(=O)[C@@H](NC(=O)[C@@H]1CCCN1C(=O)[C@H](CC(C)C)NC(=O)[C@H](CC(=O)O)NC(=O)[C@@H](NC(=O)[C@H](CO)NC(=O)[C@@H](NC(=O)[C@@H]1CCCN1C(=O)[C@@H]1CCCN1C(=O)CNC(=O)[C@@H]1CCC(=O)N1)[C@@H](C)CC)[C@@H](C)CC)[C@@H](C)O)C(C)C)[C@@H](C)CC)[C@@H](C)CC)[C@@H](C)O)C(N)=O [compound 284]	≥ 100	≥ 1000		
CC[C@H](C)[C@H](NC(=O)[C@@H](NC(=O)[C@H](CC(=O)O)NC(=O)[C@H](CC(C)C)NC(=O)[C@H](CC(C)C)NC(=O)[C@H](CC(C)C)NC(=O)[C@H](CCCNC(=N)N)NC(=O)[C@H](CC(N)=O)NC(=O)[C@H](CC(N)=O)NC(=O)[C@H](C)NC(=O)[C@H](C)NC(=O)[C@H](CCC(N)=O)NC(=O)[C@H](CCC(N)=O)NC(=O)[C@H](CCCCN)NC(=O)[C@H](CCC(=O)O)NC(=O)[C@H](CCCCN)NC(=O)[C@H](CCC(=O)O)NC(=O)[C@H](CCC(N)=O)NC(=O)[C@H](CCCCN)NC(=O)[C@H](CCC(=O)O)NC(=O)[C@@H](NC(=O)[C@H](CCC(=O)O)NC(=O)[C@@H](NC(=O)[C@H](CCSC)NC(=O)[C@H](CCCCN)NC(=O)[C@H](CCCNC(=N)N)NC(=O)[C@H](CC(C)C)NC(=O)[C@H](CC(C)C)NC(=O)[C@H](C)NC(=O)[C@@H](NC(=O)[C@@H]1CCCN1C(=O)[C@H](CC(C)C)NC(=O)[C@H](CC(=O)O)NC(=O)[C@@H](NC(=O)[C@H](CO)NC(=O)[C@@H](NC(=O)[C@@H]1CCCN1C(=O)[C@@H]1CCCN1C(=O)CNC(=O)[C@@H]1CCC(=O)N1)[C@@H](C)CC)[C@@H](C)CC)[C@@H](C)O)[C@@H](C)CC)[C@@H](C)CC)[C@@H](C)O)C(N)=O [compound 61]	> 100	> 100	(89) %	(12) %
CC[C@H](C)[C@H](NC(=O)[C@@H](NC(=O)[C@H](CC(=O)O)NC(=O)[C@H](CC(C)C)NC(=O)[C@H](CC(C)C)NC(=O)[C@H](CC(C)C)NC(=O)[C@H](CCCNC(=N)N)NC(=O)[C@H](CC(N)=O)NC(=O)[C@H](CC(N)=O)NC(=O)[C@H](C)NC(=O)[C@H](C)NC(=O)[C@H](CCC(N)=O)NC(=O)[C@H](CCC(N)=O)NC(=O)[C@H](CCCCN)NC(=O)[C@H](CCC(=O)O)NC(=O)[C@H](CCCCN)NC(=O)[C@H](CCC(=O)O)NC(=O)[C@H](CCC(N)=O)NC(=O)[C@H](CCCCN)NC(=O)[C@H](CCC(=O)O)NC(=O)[C@@H](NC(=O)[C@H](CCC(=O)O)NC(=O)[C@@H](NC(=O)[C@H](CCSC)NC(=O)[C@H](CCCCN)NC(=O)[C@H](CCCNC(=N)N)NC(=O)[C@H](CC(C)C)NC(=O)[C@H](CC(C)C)NC(=O)[C@@H](NC(=O)[C@@H](NC(=O)[C@@H]1CCCN1C(=O)[C@H](CC(C)C)NC(=O)[C@H](CC(=O)O)NC(=O)[C@@H](NC(=O)[C@H](CO)NC(=O)[C@@H](NC(=O)[C@@H]1CCCN1C(=O)[C@@H]1CCCN1C(=O)CNC(=O)[C@@H]1CCC(=O)N1)[C@@H](C)CC)[C@@H](C)CC)[C@@H](C)CC)[C@@H](C)O)[C@@H](C)CC)[C@@H](C)CC)[C@@H](C)O)C(N)=O [compound 24]	43.2	> 1000		
CC[C@H](C)[C@H](NC(=O)[C@@H](NC(=O)[C@H](CC(=O)O)NC(=O)[C@H](CC(C)C)NC(=O)[C@H](CC(C)C)NC(=O)[C@H](CCCNC(=N)N)NC(=O)[C@H](C)NC(=O)[C@H](CC(N)=O)NC(=O)[C@H](CC(N)=O)NC(=O)[C@H](C)NC(=O)[C@H](C)NC(=O)[C@H](CCC(N)=O)NC(=O)[C@H](CCC(N)=O)NC(=O)[C@H](CCCCN)NC(=O)[C@H](CCC(=O)O)NC(=O)[C@H](CCCCN)NC(=O)[C@H](CCC(=O)O)NC(=O)[C@H](CCC(N)=O)NC(=O)[C@H](CCCCN)NC(=O)[C@H](CCC(=O)O)NC(=O)[C@@H](NC(=O)[C@H](CCC(=O)O)NC(=O)[C@@H](NC(=O)[C@@H](NC(=O)[C@H](CCCCN)NC(=O)[C@H](CCCNC(=N)N)NC(=O)[C@H](CC(C)C)NC(=O)[C@H](CC(C)C)NC(=O)[C@H](Cc1c[nH]c2ccccc12)NC(=O)[C@H](Cc1ccc(O)cc1)NC(=O)[C@@H]1CCCN1C(=O)[C@@H](NC(=O)[C@H](CC(=O)O)NC(=O)[C@@H](NC(=O)[C@H](CO)NC(=O)[C@@H](NC(=O)[C@@H]1CCCN1C(=O)[C@@H]1CCCN1C(=O)CNC(=O)[C@@H]1CCC(=O)N1)[C@@H](C)CC)[C@@H](C)CC)C(C)C)C(C)C)[C@@H](C)CC)[C@@H](C)CC)[C@@H](C)O)C(N)=O [compound 372]	14.2	≥ 1000		
CC[C@H](C)[C@H](NC(=O)[C@@H](NC(=O)[C@H](CC(=O)O)NC(=O)[C@H](CC(C)C)NC(=O)[C@H](CC(C)C)NC(=O)[C@H](CC(C)C)NC(=O)[C@H](CCCNC(=N)N)NC(=O)[C@H](CC(N)=O)NC(=O)[C@H](CC(N)=O)NC(=O)[C@H](C)NC(=O)[C@H](C)NC(=O)[C@H](CCC(N)=O)NC(=O)[C@H](CCC(N)=O)NC(=O)[C@H](CCCCN)NC(=O)[C@H](CCC(=O)O)NC(=O)[C@H](CCCCN)NC(=O)[C@H](CCC(=O)O)NC(=O)[C@H](CCC(N)=O)NC(=O)[C@H](CCCCN)NC(=O)[C@H](CCC(=O)O)NC(=O)[C@@H](NC(=O)[C@H](CCC(=O)O)NC(=O)[C@@H](NC(=O)[C@H](CCSC)NC(=O)[C@H](CCCCN)NC(=O)[C@H](CCCNC(=N)N)NC(=O)[C@H](CC(C)C)NC(=O)[C@H](CC(C)C)NC(=O)[C@@H](NC(=O)[C@H](Cc1ccc(O)cc1)NC(=O)[C@@H]1CCCN1C(=O)[C@H](CC(C)C)NC(=O)[C@H](CC(=O)O)NC(=O)[C@@H](NC(=O)[C@H](CO)NC(=O)[C@@H](NC(=O)[C@@H]1CCCN1C(=O)[C@@H]1CCCN1C(=O)CNC(=O)[C@@H]1CCC(=O)N1)[C@@H](C)CC)[C@@H](C)CC)[C@@H](C)CC)[C@@H](C)CC)[C@@H](C)CC)[C@@H](C)O)C(N)=O [compound 204]	3.6	32.1		
